Measurements: patent US6706880B2 (Research Triangle Institute, priority 1990, dated 2004)

Protein sequences, listed by entry. Tags and fused reporters are not part of them.
UniProt P31652, whole entry: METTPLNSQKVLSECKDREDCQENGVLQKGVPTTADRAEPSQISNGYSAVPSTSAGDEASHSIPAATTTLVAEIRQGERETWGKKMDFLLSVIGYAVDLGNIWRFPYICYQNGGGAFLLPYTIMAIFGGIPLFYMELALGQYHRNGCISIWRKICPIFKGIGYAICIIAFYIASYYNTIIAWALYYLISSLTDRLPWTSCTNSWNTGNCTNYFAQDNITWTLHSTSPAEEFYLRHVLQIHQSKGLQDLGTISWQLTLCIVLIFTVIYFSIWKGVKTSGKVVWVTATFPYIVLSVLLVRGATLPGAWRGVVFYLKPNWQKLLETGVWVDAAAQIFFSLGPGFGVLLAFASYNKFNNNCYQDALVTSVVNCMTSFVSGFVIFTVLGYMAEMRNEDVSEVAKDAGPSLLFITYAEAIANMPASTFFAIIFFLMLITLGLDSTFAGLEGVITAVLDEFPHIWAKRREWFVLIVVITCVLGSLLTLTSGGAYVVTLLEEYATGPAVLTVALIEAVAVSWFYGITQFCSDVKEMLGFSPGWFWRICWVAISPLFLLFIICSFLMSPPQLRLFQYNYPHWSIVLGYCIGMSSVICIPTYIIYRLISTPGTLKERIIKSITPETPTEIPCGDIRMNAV

Tests used:
dopamine transporter = dopamine transporter (UniProt P23977); details: read-out: DA IC50 for inhibition of radioligand binding; DA=[3H]WIN 35,428
Source text: (§1) Illustrative in vitro assays for binding are described in Boja et al Ann. NY Acad. Sci. 654:282-291 (1992), which is incorporated herein by reference in its entirety. […] Alternatively, the compounds may be analyzed by their ability to inhibit reuptake of a labelled neurotransmitter in a sample, in particular, in synaptosomes.

serotonin transporter = target: T1, serotonin transporter (Rattus norvegicus, UniProt P31652); assay: Inhibition of [3H]paroxetine radioligand binding at the serotonin transporter; details: 5-HT IC50 for inhibition of radioligand binding, 5-HT=[3H] paroxetine
T1 construct: from tissue
Source text: as §1

| SMILES | IC50 (dopamine transporter) [nM] | IC50 (serotonin transporter) [nM] |
| --- | --- | --- |
| COC(=O)C1C(c2ccc(Cl)cc2)CC2CCC1N2C (stereo not drawn) [RTI-4229-31] | 1.12 | – |
| COC(=O)C1C2CCC(C[C@H]1c1ccccc1)N2C (stereo partly drawn) [RTI-4229-140] | – | 5700 |
| Cc1noc(C2C(c3ccc(Cl)cc3)CC3CCC2N3C)n1 (stereo not drawn) [RTI-4229-125] | 4.05 | – |
